Protein sequences, listed by entry. Tags and fused reporters are not part of them. Lines headed by an entry give the natural chain unless they say otherwise; changes in a name come on top.
UniProt Q02127: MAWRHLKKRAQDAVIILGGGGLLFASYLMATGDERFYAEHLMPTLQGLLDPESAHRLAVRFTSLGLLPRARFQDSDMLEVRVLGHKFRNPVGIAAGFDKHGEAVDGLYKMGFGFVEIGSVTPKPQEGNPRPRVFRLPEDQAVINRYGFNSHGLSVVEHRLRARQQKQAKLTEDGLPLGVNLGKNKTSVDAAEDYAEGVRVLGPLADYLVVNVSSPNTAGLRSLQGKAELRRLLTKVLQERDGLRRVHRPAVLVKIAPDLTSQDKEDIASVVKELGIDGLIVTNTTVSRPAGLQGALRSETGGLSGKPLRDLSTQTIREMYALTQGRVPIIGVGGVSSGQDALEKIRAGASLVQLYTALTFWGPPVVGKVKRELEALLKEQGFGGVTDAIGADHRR

The target of the assay is N-terminally truncated recombinant hDHODH enzyme (Homo sapiens, UniProt Q02127). Briefly: biochemical.
As for `[2H]C([2H])([2H])C([2H])([2H])Oc1cccc(-c2cc(F)c(NC(=O)C3=C(C(=O)O)CCC3)c(F)c2)c1` [1/3], the IC50 (commonly the concentration at which inhibition is half-maximal) is < 100 nM.
The same measure, in the same setting: then `[2H]C1([2H])OC([2H])([2H])C([2H])([2H])N(c2cc(F)c(NC(=O)C3=C(C(=O)O)CCC3)c(F)c2)C1([2H])[2H]` [1/11], with > 10000 nM; and `[2H]c1c([2H])c(F)c([2H])c(-c2cc(F)c(NC(=O)C3=C(C(=O)O)CCC3)c(F)c2)c1[2H]` [1/7], with 100 to 1000 nM.
With `[2H]c1cc([2H])c(-c2c(F)c(F)c(NC(=O)c3ccsc3C(=O)O)c(F)c2F)c([2H])c1OC(F)(F)F` [Example 4, 3-((2,3,5,6-Tetrafluoro-3′-(trifluoromethoxy)-[1,1′-biphenyl]-4-yl-2′,4′,6′-d3)carbamoyl)thiophene-2-carboxylic Acid], the Ki – broadly, a measure of affinity in units of concentration, obtained from inhibition or displacement – is 1.2 nM.
`[2H]C([2H])([2H])Oc1cccc(-c2ccc(NC(=O)C3=C(C(=O)O)CCC3)c3cnccc23)c1` [12/3]: the IC50 is > 10000 nM.
With `[2H]C(F)(F)Oc1cccc(-c2ccc(NC(=O)C3=C(C(=O)O)CCC3)c(F)c2)c1` [Example 5, 2-((3′-(Difluoromethoxy-d)-3-fluoro-[1,1′-biphenyl]-4-yl)carbamoyl)cyclopent-1-ene-1-carboxylic Acid], the Ki was determined as 839 nM.
In the case of `[2H]c1cc([2H])c(-c2c(F)c(F)c(NC(=O)C3=C(C(=O)O)CCC3)c(F)c2F)c([2H])c1OC(F)(F)F` [Example 3, 2-((2,3,5,6-Tetrafluoro-3′-(trifluoromethoxy)-[1,1′-biphenyl]-4-yl-2′,4′,6′-d3)carbamoyl)cyclopent-1-ene-1-carboxylic Acid], the IC50 is < 100 nM.
With `[2H]c1cc([2H])c(-c2ccc(NC(=O)C3=C(C(=O)O)CCC3)c(F)c2)c([2H])c1O` [Example 8, 2-((3-Fluoro-3′-hydroxy-[1,1′-biphenyl]-4-yl-2′,4′,6′-d3)carbamoyl)cyclopent-1-ene-1-carboxylic Acid], the IC50 fell in the range of 1000 to 10000 nM.

Source of the values: patent US20240199535A1, “DEUTERATED DHODH INHIBITORS” (priority 2021, published 2024).
